In the assay the test system is NK cells. The assay can be described thus: ex vivo NK cell expansion with irradiated feeder cells. It is filed as cell-based, human. The following applies: IL-2 10, 200 and 1000 U/mL. The source says: According to the disclosed methods, NKF cells are irradiated to prevent their expansion and then co-cultured with NK cells. NKF cells are rapidly killed by NK cells during the co-culture, leading to concomitant expansion of the NK cells. […] Without wishing to be bound by theory, the prevention of senescence is believed to be due partially to the mbIL-21 on the feeder cells.
To assess their expansion potential, OCI-AML3 (this line is commercially available from, e.g. DSMZ, Braunschweig, Germany, it is not available at ATCC) and HL-60 cells (also commercially available from, e.g., DSMZ, Braunschweig, Germany) cells were cultured in RPMI 1640 media (Hyclone) supplemented with 10% calf serum (Hyclone), penicillin (100 U/mL), and streptomycin (100 μg/mL). Testing for Mycoplasma contamination was performed on all cell lines at regular intervals using the Mycoplasma Detection Kit-Quick Test (www.bimake.com). Once cultured and collected, the OCI-AML3 or HL-60 cells were irradiated using gamma irradiation (30 Gy) to obtain irradiated feeder cells.
Peripheral blood mononuclear cells (PBMC's) were isolated from peripheral blood of healthy human donors via FICOLL (GE Healthcare) gradient centrifugation. […] Referring to FIG. 2, the OCI-AML3 cell line (unfilled bar) led to a 4.6-fold expansion over a 1-week incubation period as measured by cell counting using a hematocytomer. […]

Take “IL-2: interleukin cytokine used as cytokine support in NK cell culture”: the “effect of IL-2 concentration on proliferative capacity of the feeder cell expansion” value is listed as “not resulting in a statistically significant difference”.

The record behind these values is patent US12060577B2, “Compositions for expanding natural killer cells” (CASE WESTERN RESERVE UNIVERSITY, priority 2017, dated 2024).
